According to PMC6008493, “Thioamide substitution to probe the hydroxyproline recognition of VHL ligands” (Bioorganic & Medicinal Chemistry, 2018):

How the values were obtained:
[1] = target: T1, VBC (Homo sapiens, UniProt P40337); assay: Direct FP titration of FAM-labelled HIF-1α peptide; format: binding; conditions: peptide bound to VBC
T1 construct: made in house
Procedure: FP competitive binding experiments were performed on a PHERAstar FS (BMG LABTECH) in 384-well plates (Corning 3575), with an excitation wavelength (λ) at 485 nm and emission (λ)at 520 nm. […] Control wells contained VBC and peptide in the absence of compound (maximum signal), and peptide in the absence of protein (background signal). Data were obtained in triplicate and the percentage of displacement was determined and graphed against log[VHL inhibitors]. Average IC50 values and the standard error of the mean (SEM) were determined for each titration using Prism 6. Dissociation constants Kd were back-calculated from the measured IC50 values using a displacement binding model, as described previously.^6

[2] = target: VBC complex (VHL, elongin B, elongin C) (Homo sapiens, UniProt P40337); assay: Isothermal titration calorimetry (ITC) direct titration; conditions: 25°C
[3] = target: T2, VBC protein (VHL, elongin B, elongin C) (Homo sapiens, UniProt P40337); assay: Competitive fluorescence polarization (FP) binding assay displacing FAM-labelled HIF-1α peptide; conditions: back-calculated from measured IC50; 15 nM VBC, 10 nM FAM-HIF-1α peptide, pH 7
T2 construct: made in house
Procedure: Control wells contained VBC and peptide in the absence of compound (maximum signal), and peptide in the absence of protein (background signal). Data were obtained in triplicate and the percentage of displacement was determined and graphed against log[VHL inhibitors]. Average IC50 values and the standard error of the mean (SEM) were determined for each titration using Prism 6. Dissociation constants Kd were back-calculated from the measured IC50 values using a displacement binding model, as described previously.^6

| Compound | Kd [1] | ΔH ([2]; ITC enthalpy of binding) | Kd ([2]; read-out: Kd ITC, pH 7, 3% DMSO) | Kd [3] |
| --- | --- | --- | --- | --- |
| CC[C@H](C)[C@H](NC(=O)[C@H](Cc1ccc(O)cc1)NC(=O)[C@@H]1C[C@@H](O)CN1C(=O)[C@H](C)NC(=O)[C@H](CC(C)C)NC(=O)[C@H](C)NC(=O)[C@H](CCC(=O)O)NC(=O)[C@H](CC(=O)O)NC(=O)c1ccc2c(c1)C(=O)OC21c2ccc(O)cc2Oc2cc(O)ccc21)C(=O)N1CCC[C@H]1C(=O)N[C@@H](CCSC)C(=O)N[C@@H](CC(=O)O)C(=O)N[C@@H](CC(=O)O)C(=O)N[C@@H](CC(=O)O)C(=O)N[C@@H](Cc1ccccc1)C(=O)N[C@@H](CCC(N)=O)C(=O)N[C@@H](CC(C)C)C(=O)N[C@@H](CCCNC(=N)N)C(=O)N[C@@H](CO)C(=O)N[C@@H](Cc1ccccc1)C(=O)O [FAM-labelled HIF-1α peptide] | 0.003 µM | – | – | – |
| CC(=O)N[C@@H](C)C(=O)N1C[C@H](O)C[C@H]1C(=O)NCc1ccc(-c2scnc2C)cc1 [compound 1] | – | -38.2 ± 0.29 kJ/mol | 0.44 ± 0.04 µM | 0.69 ± 0.03 µM |
